Positions count from the first letter of the chain named.
Experiments:
MUP20Y103D = molecular target: T1, MUP20Y103D (Mus musculus, UniProt Q5FW60, Y103D); assay: Fluorescence competitive binding assay with 1-NPN, MUP20 Y103D; details: 1-NPN displacement, 50 mM Tris-HCl pH 7.4, 25 °C; read-out: Measured Kd, Y103D
T1 construct: 6xHis (N); made in house; host or cells: E. coli BL21(DE3), pET5b
T1 sequence (Q5FW60 20-181 Y103D): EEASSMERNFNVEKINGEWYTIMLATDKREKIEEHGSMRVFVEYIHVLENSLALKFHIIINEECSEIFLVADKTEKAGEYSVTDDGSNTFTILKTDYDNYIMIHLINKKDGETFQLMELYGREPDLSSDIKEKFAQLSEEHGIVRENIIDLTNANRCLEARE
Procedure: (§1) Fluorescence competitive binding assays: Fluorescence-competitive binding assays were carried out using the fluorescent probe N-phenyl-1-naphthylamine (1-NPN), as described[39],[40]. A binding curve was constructed and the dissociation constant of the probe (KD) was calculated.
(§2) The binding analyses assumed that the protein had 100% activity and that the stoichiometry of binding was 1:1 at saturation. The affinity of various volatile ligands was measured in competitive binding assays.
(§3) The change in fluorescence was recorded after adding increasing concentrations of ligand. Competitor concentrations causing a decay of fluorescence to half-maximal intensity were determined as IC50 and the dissociation constant for the test ligands (expressed as Kd) was calculated using the following formula:1 Kd=[IC50]/1+[Probe]/KD where [Probe] is the free concentration of the fluorescent probe and KD is the dissociation constant of the complex Protein/Probe.

MUP20Y103R = molecular target: T2, MUP20Y103R (Mus musculus, UniProt Q5FW60, Y103R); assay: Fluorescence competitive binding assay with 1-NPN, MUP20 Y103R; details: 1-NPN displacement, 50 mM Tris-HCl pH 7.4, 25 °C; read-out: Measured Kd, Y103R
T2 construct: 6xHis (N); made in house; host or cells: E. coli BL21(DE3), pET5b
T2 sequence (Q5FW60 20-181 Y103R): T1 sequence (Q5FW60 20-181 Y103D) with D84R
Procedure: as §1, §2, §3

MUP20L124V = molecular target: T3, MUP20L124V (Mus musculus, UniProt Q5FW60, L124V); assay: Fluorescence competitive binding assay with 1-NPN, MUP20 L124V; details: 1-NPN displacement, 50 mM Tris-HCl pH 7.4, 25 °C; read-out: Measured Kd, L124V
T3 construct: 6xHis (N); made in house; host or cells: E. coli BL21(DE3), pET5b
T3 sequence (Q5FW60 20-181 L124V): T1 sequence (Q5FW60 20-181 Y103D) with D84Y, L105V
Procedure: as §1, §2, §3

MUP20N107L = molecular target: T4, MUP20N107L (Mus musculus, UniProt Q5FW60, N107L); assay: Fluorescence competitive binding assay with 1-NPN, MUP20 N107L; details: 1-NPN displacement, 50 mM Tris-HCl pH 7.4, 25 °C; read-out: Measured Kd, N107L
T4 construct: 6xHis (N); made in house; host or cells: E. coli BL21(DE3), pET5b
T4 sequence (Q5FW60 20-181 N107L): T1 sequence (Q5FW60 20-181 Y103D) with D84Y, N88L
Procedure: as §1, §2, §3

wild type MUP20 = molecular target: T5, wild type MUP20 (Mus musculus, UniProt Q5FW60); assay: Fluorescence competitive binding assay with 1-NPN, wild type MUP20; details: 1-NPN displacement, 50 mM Tris-HCl pH 7.4, 25 °C; read-out: Measured Kd, WT
T5 construct: 6xHis (N); made in house; host or cells: E. coli BL21(DE3), pET5b
T5 sequence (Q5FW60 20-181): T1 sequence (Q5FW60 20-181 Y103D) with D84Y
Procedure: as §1, §2, §3

Substance: L-Adrenaline
- Kd (MUP20Y103D): 3.34 µM
- Kd (MUP20Y103R): 7.06 µM
- Kd (MUP20L124V): 1.33 µM
- Kd (MUP20N107L): 0.9 µM
- Kd (wild type MUP20): 5.31 µM

Reference: article PMC6342991, “Effects of point mutations in the binding pocket of the mouse major urinary protein MUP20 on ligand affinity and specificity” (Scientific Reports, 2019)
